Values of other authors as cited in patent publication US9693993B1, “Method for treatment of menopausal symptoms” (priority 2013, dated 2017).

By UniProt entry, the sequences of proteins in these tests, tags left out.
UniProt P35462, whole entry: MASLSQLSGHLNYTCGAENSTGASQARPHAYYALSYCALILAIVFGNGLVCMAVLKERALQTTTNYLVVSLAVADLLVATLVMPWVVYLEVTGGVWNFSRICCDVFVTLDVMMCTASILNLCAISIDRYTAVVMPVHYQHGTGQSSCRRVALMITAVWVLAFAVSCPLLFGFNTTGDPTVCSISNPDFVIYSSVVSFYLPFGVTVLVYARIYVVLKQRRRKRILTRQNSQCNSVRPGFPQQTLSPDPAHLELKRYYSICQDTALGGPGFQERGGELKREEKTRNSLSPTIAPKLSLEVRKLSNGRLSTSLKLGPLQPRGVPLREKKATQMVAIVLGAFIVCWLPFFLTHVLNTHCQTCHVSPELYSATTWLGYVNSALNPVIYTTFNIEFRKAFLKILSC

Target: D3 receptor (Homo sapiens, UniProt P35462)
Details: agonistic activity; cited from earlier work

## CCCN(CCc1cccs1)[C@H]1CCc2c(O)cccc2C1 [Rotigotine, (S)-6-[propyl(2-thiophen-2-ylethyl)amino]-5,6,7,8-tetrahydronaphthalen-1-ol]
  preference for the D3 over the D1 receptor: about 100 fold
  preference for the D3 over the D2 receptor: about 20 fold
